Like-named read-outs stand apart in the source and are kept apart here.
Target: CFTR-mediated chloride transport in human intestinal epithelial enteroid cells (Homo sapiens, UniProt P13569)
Test: Membrane potential dye, Enteroid Assay A
Conditions: for EC50: read-out: Ent. A EC50

Sequences of proteins named here, by UniProt entry; tags and fusion partners are left off. A line that says so, or that is headed by a name, gives the form on record, which may keep a tag or linker.
UniProt P13569, with tags, fused parts or gaps DEL508-508: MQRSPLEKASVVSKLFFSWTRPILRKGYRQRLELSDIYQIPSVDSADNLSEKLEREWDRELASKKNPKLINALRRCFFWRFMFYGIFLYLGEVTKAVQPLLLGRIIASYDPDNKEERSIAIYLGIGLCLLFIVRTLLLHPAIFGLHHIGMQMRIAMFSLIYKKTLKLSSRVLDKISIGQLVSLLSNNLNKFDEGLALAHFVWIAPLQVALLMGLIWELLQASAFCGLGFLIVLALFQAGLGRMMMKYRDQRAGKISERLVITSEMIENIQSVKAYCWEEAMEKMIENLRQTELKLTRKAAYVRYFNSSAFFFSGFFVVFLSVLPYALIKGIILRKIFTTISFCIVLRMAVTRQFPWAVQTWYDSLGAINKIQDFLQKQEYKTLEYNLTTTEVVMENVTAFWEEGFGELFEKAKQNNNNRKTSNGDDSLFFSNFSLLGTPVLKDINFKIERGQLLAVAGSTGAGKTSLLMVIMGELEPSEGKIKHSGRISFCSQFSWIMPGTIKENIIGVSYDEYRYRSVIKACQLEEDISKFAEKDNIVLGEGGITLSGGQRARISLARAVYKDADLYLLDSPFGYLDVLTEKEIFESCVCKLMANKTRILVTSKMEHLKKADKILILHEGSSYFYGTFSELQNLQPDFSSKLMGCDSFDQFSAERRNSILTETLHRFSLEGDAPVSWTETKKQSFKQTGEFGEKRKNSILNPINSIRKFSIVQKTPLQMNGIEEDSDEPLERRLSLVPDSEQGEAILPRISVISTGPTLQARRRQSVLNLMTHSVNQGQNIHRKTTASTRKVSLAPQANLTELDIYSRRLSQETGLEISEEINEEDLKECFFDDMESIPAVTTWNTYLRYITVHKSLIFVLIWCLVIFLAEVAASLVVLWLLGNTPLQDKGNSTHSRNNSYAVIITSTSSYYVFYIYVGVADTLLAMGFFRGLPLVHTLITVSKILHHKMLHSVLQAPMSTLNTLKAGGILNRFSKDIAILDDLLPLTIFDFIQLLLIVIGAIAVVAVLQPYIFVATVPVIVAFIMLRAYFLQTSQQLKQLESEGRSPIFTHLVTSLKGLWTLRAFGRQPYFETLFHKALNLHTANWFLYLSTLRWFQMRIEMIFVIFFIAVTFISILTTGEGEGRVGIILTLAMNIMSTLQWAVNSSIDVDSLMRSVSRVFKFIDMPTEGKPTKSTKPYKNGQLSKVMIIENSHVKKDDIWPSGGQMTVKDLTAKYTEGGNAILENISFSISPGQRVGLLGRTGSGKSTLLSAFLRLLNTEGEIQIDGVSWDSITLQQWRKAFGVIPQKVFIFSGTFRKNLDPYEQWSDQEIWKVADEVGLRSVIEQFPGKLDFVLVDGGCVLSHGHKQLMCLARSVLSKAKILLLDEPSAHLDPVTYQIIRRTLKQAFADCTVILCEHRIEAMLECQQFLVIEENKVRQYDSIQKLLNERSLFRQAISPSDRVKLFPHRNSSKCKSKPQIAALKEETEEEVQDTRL

Row | SMILES | Ent. A Max Activity (%) (Enteroid Assay A) | EC50 (Enteroid Assay A) | Ent. A Max Activity (%) (percentage of chloride transport of triple combination control (3 μM N-[(6-amino-2-pyridyl)sulfonyl]-6-(3-fluoro-5-isobutoxy-phenyl)-2-[(4S)-2,2,4-trimethylpyrrolidin-1-yl]pyridine-3-carboxamide based)) | EC50 (enteroid cells incubated with test compound 18-24 hours, acute 10 μM forskolin and 300 nM N-[2,4-bis(1,1-dimethylethyl)-5-hydroxyphenyl]-1,4-dihydro-4-oxoquinoline-3-carboxamide)
1 | Cc1ccccc1-c1cc2nc(n1)NS(=O)(=O)c1cccc(c1)C(=O)N1Cc3ccccc3[C@H](O2)[C@H]1CC(C)C | +++ (+++ is >600%) | < 1 µM | – | –
2 | Cc1cccc(C)c1-c1cc2nc(n1)NS(=O)(=O)c1cccc(c1)C(=O)N1Cc3ccccc3CC(C1)O2 (single isomer, unassigned) [Compound 217, 12-(2,6-dimethylphenyl)-15-oxa-8λ^6-thia-1,9,11,26-tetraazapentacyclo[14.8.1.13,7.110,14.018,23]heptacosa-3(27),4,6,10,12,14(26),18,20,22-nonaene-2,8,8-trione] | – | – | ++ (++ is 30-60%) | < 1 µM

From patent US20240018161A1, “MODULATORS OF CYSTIC FIBROSIS TRANSMEMBRANE CONDUCTANCE REGULATOR” (VERTEX PHARMACEUTICALS INCORPORATED, priority 2020, published 2024)
